# Results: patent publication US20150111864A1, “CRYSTALLINE FORM OF A BETA-LACTAMASE INHIBITOR” (Cubist Pharmaceuticals, Inc., priority 2013, published 2015)
# Legend:
# [1] = test system: Kpn clinical strain expressing KPC-2; experiment: Synergy MIC (sMIC) assay; format: cell-based, Klebsiella pneumoniae; details: β-Lactam CXA-101 at 4 μg/mL; KPC-2, clinical Kpn
# Method: (§1) The synergy MIC (sMIC) assay determines the concentration of the BLI required to potentiate the activity of a fixed concentration of a β-lactam antibiotic against β-lactamase producing bacterial strains. The experimental protocol was performed according to Clinical and Laboratory Standards Institute (CLSI) guidelines with modifications as described below (CLSI guidelines can be derived from the CLSI document M07-A9 published in January 2012: “Methods for Dilution Antimicrobial Susceptibility Tests for Bacteria That Grow Aerobically; Approved Standard-Ninth Edition”). […]
# (§2) Plates were incubated for 18-20 hours at 37° C. with aeration (200 rpm). Following incubation, growth was confirmed visually placing plates over a viewing apparatus (stand with a mirror underneath) and then OD600 was measured using a SpectraMax 340PC384 plate reader (Molecular Devices, Sunnyvale, Calif.). Growth was defined as turbidity that could be detected with the naked eye or achieving minimum OD600 of 0.1. sMIC values were defined as the lowest concentration producing no visible turbidity. […]
# [2] = test system: Pae clinical strain expressing KPC-2; experiment: Synergy MIC (sMIC) assay; format: cell-based, Pseudomonas aeruginosa; details: β-Lactam CXA-101 at 4 μg/mL; KPC-2, clinical Pae
# Method: as §1, §2
# [3] = test system: Kpn.2926 (CTX-M-15, OXA-48, clinical); experiment: Standard BLI Potentiation MIC Assay in Combination with Ceftolozane; format: cell-based, Klebsiella pneumoniae; details: BLI at 4 μg/mL
# Method: (§3) The experimental protocol was performed according to Clinical and Laboratory Standards Institute (CLSI) guidelines with modifications as described below (CLSI guidelines can be derived from the CLSI document M07-A9 published in January 2012: “Methods for Dilution Antimicrobial Susceptibility Tests for Bacteria That Grow Aerobically; Approved Standard-Ninth Edition”).
# (§4) To prepare for MIC testing, frozen glycerol stocks of clinical isolates (Klebsiella pneumoniae, Escherichia coli, Enterobacter spp, Citrobacter spp, or Pseudomonas aeruginosa) were used to streak for isolated colonies on rich, non-selective, tryptic soy agar containing 5% sheep's blood (TSAB). Frozen glycerol stocks of laboratory engineered, isogenic E. coli strains, which contain cloned β-lactamase expressing plasmids were used to streak for isolated colonies on rich, selective LB agar supplemented with 25 μg/mL tetracycline to maintain the plasmid. All strains were incubated at 37° C. for 18-24 hrs.
# (§5) On the day of testing, primary cultures were started by scraping off 5-10 colonies from the TSAB plates containing clinical strains or the tetracycline supplemented LB plates containing engineered strains. The clinical strain material was suspended in ˜5 mL of cation adjusted Mueller Hinton Broth (CAMHB) in 14 mL culture tubes. The engineered strain material was suspended in CAMHB (supplemented with 25 μg/mL tetracycline) in 14 mL culture tubes. All strains were incubated at 37° C. with aeration (200 rpm) for ˜2 hrs until the optical density at 600 nm (OD600) was ≧0.1.
# (§6) The two compound components of the assay were each diluted in CAMHB and added to the 96-well broth microdilution assay plates. 50 μL of the β-lactam was added to each well of the assay plate in 2-fold dilutions with final concentrations ranging from 128 to 0.13 μg/mL. 25 μL of the BLI compound was added to all wells in the broth microdilution plates at a final concentration of 4 μg/mL. Inoculum cultures were prepared by standardizing the primary cultures to OD600=0.1 and then adding 20 μL of the adjusted primary culture per 1 mL CAMHB for clinical strains or CAMHB (supplemented with tetracycline at 100 μg/mL) for engineered strains, so that the final inoculum density was ˜10^5 colony forming units per milliliter. Diluted inoculum cultures were used to inoculate 25 μL per well in 96-well broth microdilution assay plates. The final volume of each well was 100 μL and contained a β-lactam at different concentrations, a BLIcompound at 4 μg/mL concentration, the bacterial culture at an OD600 of approximately 0.001 and when necessary tetracycline at 25 μg/mL.
# (§7) Plates were incubated for 18-20 hours at 37° C. with aeration (200 rpm). Following incubation, growth was confirmed visually placing plates over a viewing apparatus (stand with a mirror underneath) and then OD600 was measured using a SpectraMax 340PC384 plate reader (Molecular Devices, Sunnyvale, Calif.). Growth was defined as turbidity that could be detected with the naked eye or achieving minimum OD600 of 0.1. MIC values were defined as the lowest concentration producing no visible turbidity.
# [4] = test system: Kpn.2490 (KPC-3, SHV+, TEM+, clinical); experiment: as above; format: cell-based, Klebsiella pneumoniae; details: BLI at 4 μg/mL
# Method: as §3, §4, §5, §6, §7
# [5] = test system: Kpn.2913 (KPC-2, SHV+, clinical); experiment: as above; format: cell-based, Klebsiella pneumoniae; details: BLI at 4 μg/mL
# Method: as §3, §4, §5, §6, §7
# [6] = test system: Kpn.2917 (KPC-2, SHV+, clinical); experiment: as above; format: cell-based, Klebsiella pneumoniae; details: BLI at 4 μg/mL
# Method: as §3, §4, §5, §6, §7
# [7] = test system: Kpn.2909 (KPC-3, SHV+, TEM+, clinical); experiment: as above; format: cell-based, Klebsiella pneumoniae; details: BLI at 4 μg/mL
# Method: as §3, §4, §5, §6, §7
# [8] = test system: Kpn.2478 (KPC-3, TEM+, clinical); experiment: as above; format: cell-based, Klebsiella pneumoniae; details: BLI at 4 μg/mL
# Method: as §3, §4, §5, §6, §7
# [9] = test system: Kpn.2783 (CTX-M-15, SHV+, TEM+, clinical); experiment: as above; format: cell-based, Klebsiella pneumoniae; details: BLI at 4 μg/mL
# Method: as §3, §4, §5, §6, §7
# [10] = test system: Kpn.571 (TEM-26, clinical); experiment: as above; format: cell-based, Klebsiella pneumoniae; details: BLI at 4 μg/mL
# Method: as §3, §4, §5, §6, §7
# [11] = test system: Kpn.2918 (KPC-3, SHV+, TEM+, clinical); experiment: as above; format: cell-based, Klebsiella pneumoniae; details: BLI at 4 μg/mL
# Method: as §3, §4, §5, §6, §7
# [12] = test system: Kpn.2914 (KPC-2, SHV+, clinical); experiment: as above; format: cell-based, Klebsiella pneumoniae; details: BLI at 4 μg/mL
# Method: as §3, §4, §5, §6, §7
# [13] = test system: Pae.2808 (KPC-2, clinical); experiment: as above; format: cell-based, Pseudomonas aeruginosa; details: BLI at 4 μg/mL
# Method: as §3
# as §4, with “hrs. […]” for “hrs.”
# as §2, with “0.1.” for “0.1. sMIC values were defined as the lowest concentration producing no visible turbidity.”
# [14] = test system: Eco isogenic strain expressing KPC-2; experiment: Synergy MIC (sMIC) assay; format: cell-based, Escherichia coli; details: β-Lactam CXA-101 at 4 μg/mL; KPC-2, isogenic Eco
# Method: as §1, §2
# Eco.2711 (KPC, clinical) = experiment: Standard BLI Potentiation MIC Assay in Combination with Ceftolozane; format: cell-based, Escherichia coli; details: BLI at 4 μg/mL
# Method: as §3, §4, §5
# (§8) The two compound components of the assay were each diluted in CAMHB and added to the 96-well broth microdilution assay plates. […]
# as §2, with “0.1.” for “0.1. sMIC values were defined as the lowest concentration producing no visible turbidity.”
# [15] = test system: Eco.2840 (KPC-4, isogenic); experiment: as above; format: cell-based, Escherichia coli; details: BLI at 4 μg/mL
# Method: as §3, §4, §5, §8
# as §2, with “0.1.” for “0.1. sMIC values were defined as the lowest concentration producing no visible turbidity.”
# [16] = test system: Eco.2781 (KPC-2, TEM+, clinical); experiment: as above; format: cell-based, Escherichia coli; details: BLI at 4 μg/mL
# Method: as §3, §4, §5, §8
# as §2, with “0.1.” for “0.1. sMIC values were defined as the lowest concentration producing no visible turbidity.”
substance,measurement,setting,value
"(2S,5R)-2-(5-(3-aminopropyl)-1,3,4-oxadiazol-2-yl)-7-oxo-1,6-diazabicyclo[3.2.1]octan-6-yl hydrogen sulfate [ψ]",sMIC,[1],B (B = 1-2 μg/mL)
same,sMIC,[2],B (B = 1-2 μg/mL)
same,MIC of Ceftolozane in combination with BLI,[3],A (A = 0.25-0.5 μg/mL)
same,MIC of Ceftolozane in combination with BLI,[4],AA (AA = <0.25 μg/mL)
same,MIC of Ceftolozane in combination with BLI,[5],AA (AA = <0.25 μg/mL)
same,MIC of Ceftolozane in combination with BLI,[6],AA (AA = <0.25 μg/mL)
same,MIC of Ceftolozane in combination with BLI,[7],AA (AA = <0.25 μg/mL)
same,MIC of Ceftolozane in combination with BLI,[8],AA (AA = <0.25 μg/mL)
same,MIC of Ceftolozane in combination with BLI,[9],B (B = 1-2 μg/mL)
same,MIC of Ceftolozane in combination with BLI,[10],AA (AA = <0.25 μg/mL)
same,MIC of Ceftolozane in combination with BLI,[11],B (B = 1-2 μg/mL)
same,MIC of Ceftolozane in combination with BLI,[12],A (A = 0.25-0.5 μg/mL)
same,MIC of Ceftolozane in combination with BLI,[13],B (B = 1-2 μg/mL)
same,sMIC,[14],B (B = 1-2 μg/mL)
same,MIC of Ceftolozane in combination with BLI,"Eco.2711 (KPC, clinical)",AA (AA = <0.25 μg/mL)
same,MIC of Ceftolozane in combination with BLI,[15],C (C = 4-8 μg/mL)
same,MIC of Ceftolozane in combination with BLI,[16],AA (AA = <0.25 μg/mL)
